By UniProt entry, the sequences of proteins in these tests, tags left out. Where a name states a change or a piece, a line headed by the entry shows the natural chain unless it says otherwise.
UniProt P41144: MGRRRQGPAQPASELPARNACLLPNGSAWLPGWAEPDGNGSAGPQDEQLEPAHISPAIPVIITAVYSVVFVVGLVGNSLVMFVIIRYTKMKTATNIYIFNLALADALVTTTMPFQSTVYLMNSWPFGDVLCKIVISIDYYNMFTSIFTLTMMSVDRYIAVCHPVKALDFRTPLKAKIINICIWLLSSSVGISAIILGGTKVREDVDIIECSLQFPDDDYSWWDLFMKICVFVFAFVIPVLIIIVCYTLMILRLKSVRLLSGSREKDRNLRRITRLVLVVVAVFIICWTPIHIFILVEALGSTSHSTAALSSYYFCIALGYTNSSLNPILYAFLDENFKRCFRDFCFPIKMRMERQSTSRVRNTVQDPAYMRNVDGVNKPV

According to ChEMBL document CHEMBL1795257, “Synthesis of new opioid derivatives with a propellane skeleton and their pharmacology: part 1” (Bioorg Med Chem Lett, 2011):

Target: Kappa-type opioid receptor (Cavia porcellus, UniProt P41144)
Assay: Displacement of [3H]U69593 from kappa opioid receptor in guinea pig cerebellum homogenate by scintillation counting
Type: tissue-based

For CCC12CCN(CC3(O)CC3)[C@H](Cc3ccc(O)cc31)C2(C)C, the Ki was 0.03 nM.
